Paper PMC4516563 (Biochimica et biophysica acta, 2015)

Key:
Settings in all cases: disc diffusion, 30-45 ug per disc, 7-10 days; result in words
human brain U251N = tested on: human brain U251N
[1] = tested on: human pancreatic cancer PANC1
human colon HCT116 = tested on: human colon HCT116

iso-kahalalide F [isoKF]
minimal: cytotoxicity based on the zone assay, U251N (human brain U251N) | cytotoxicity based on the zone assay, PANC-1 [1] | cytotoxicity based on the zone assay, HCT-116 (human colon HCT116)
